Where a name gives a salt, the structure may show the parent alone.

The chains behind the UniProt entries cited, without tags or fusion partners. Where a name states a change or a piece, a line headed by the entry shows the natural chain unless it says otherwise.
UniProt O00329: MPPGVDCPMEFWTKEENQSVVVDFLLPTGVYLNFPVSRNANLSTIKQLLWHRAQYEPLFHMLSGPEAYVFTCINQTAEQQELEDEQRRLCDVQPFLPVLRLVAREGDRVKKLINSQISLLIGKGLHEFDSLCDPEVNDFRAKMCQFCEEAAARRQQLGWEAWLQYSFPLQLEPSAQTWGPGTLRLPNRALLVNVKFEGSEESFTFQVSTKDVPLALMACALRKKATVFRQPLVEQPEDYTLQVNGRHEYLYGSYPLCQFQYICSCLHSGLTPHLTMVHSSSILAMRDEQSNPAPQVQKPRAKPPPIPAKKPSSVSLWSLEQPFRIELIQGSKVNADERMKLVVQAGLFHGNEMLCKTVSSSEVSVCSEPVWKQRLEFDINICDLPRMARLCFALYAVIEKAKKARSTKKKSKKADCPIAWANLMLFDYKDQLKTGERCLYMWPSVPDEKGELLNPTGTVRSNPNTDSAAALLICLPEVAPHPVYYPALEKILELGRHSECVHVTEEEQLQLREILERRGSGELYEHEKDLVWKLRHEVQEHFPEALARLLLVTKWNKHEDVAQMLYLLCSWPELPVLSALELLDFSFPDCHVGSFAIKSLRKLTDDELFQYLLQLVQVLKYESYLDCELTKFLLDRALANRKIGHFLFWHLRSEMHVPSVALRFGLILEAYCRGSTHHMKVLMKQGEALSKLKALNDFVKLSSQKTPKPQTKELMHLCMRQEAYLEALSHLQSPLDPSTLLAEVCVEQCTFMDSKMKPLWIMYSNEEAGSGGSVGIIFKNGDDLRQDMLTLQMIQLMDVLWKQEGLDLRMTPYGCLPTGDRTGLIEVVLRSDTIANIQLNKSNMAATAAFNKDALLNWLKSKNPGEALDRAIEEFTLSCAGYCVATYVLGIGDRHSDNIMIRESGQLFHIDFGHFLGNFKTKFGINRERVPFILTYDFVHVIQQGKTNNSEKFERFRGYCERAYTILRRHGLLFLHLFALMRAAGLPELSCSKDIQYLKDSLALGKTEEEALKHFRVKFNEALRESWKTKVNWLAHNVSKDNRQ

The assay concerns the target T1, PI3Kδ (p110δ/p85α) (Homo sapiens, UniProt O00329).
T1 construct: purchased Millipore (Bedford, Mass.)
Put plainly: PI3Kδ scintillation proximity assay. Format: biochemical. The source says:
Materials: [γ-^33P]ATP (10 mCi/mL) was purchased from Perkin-Elmer (Waltham, Mass.). Lipid kinase substrate, D-myo-Phosphatidylinositol 4,5-bisphosphate (PtdIns(4,5)P2)D (+)-sn-1,2-di-O-octanoylglyceryl, 3-O-phospho linked (PIP2), CAS 204858-53-7, was purchased from Echelon Biosciences (Salt Lake City, Utah). PI3Kδ (p110δ/p85α) was purchased from Millipore (Bedford, Mass.). ATP, MgCl2, DTT, EDTA, MOPS and CHAPS were purchased from Sigma-Aldrich (St. Louis, Mo.). Wheat Germ Agglutinin (WGA) YSi SPA Scintillation Beads was purchased from GE healthcare life sciences (Piscataway, N.J.).
Assay: The kinase reaction was conducted in polystyrene 384-well matrix white plate from Thermo Fisher Scientific in a final volume of 25 μL. Inhibitors were first diluted serially in DMSO and added to the plate wells before the addition of other reaction components. The final concentration of DMSO in the assay was 0.5%. The PI3K assays were carried out at room temperature in 20 mM MOPS, pH 6.7, 10 mM MgCl2, 5 mM DTT and CHAPS 0.03%. Reactions were initiated by the addition of ATP, the final reaction mixture consisted of 20 μM PIP2, 20 μM ATP, 0.2 μCi [γ-^33P] ATP, 4 nM PI3Kδ. Reactions were incubated for 210 minutes and terminated by the addition of 40 μL SPA beads suspended in quench buffer: 150 mM potassium phosphate pH 8.0, 20% glycerol. 25 mM EDTA, 400 μM ATP. The final concentration of SPA beads is 1.0 mg/mL. After the plate sealing, plates were shaken overnight at room temperature and centrifuged at 1800 rpm for 10 minutes, the radioactivity of the product was determined by scintillation counting on Topcount (Perkin-Elmer). IC50 determination was performed by fitting the curve of percent control activity versus the log of the inhibitor concentration using the GraphPad Prism® 3.0 software.
As for `CC(Nc1ncnc2[nH]cnc12)c1cc(Cl)c2ccnnc2c1-c1cccc(F)c1` (single isomer, unassigned) [Example 18, N-{1-[5-Chloro-8-(3-fluorophenyl)cinnolin-7-yl]ethyl}-9H-purin-6-amine], the half-maximal inhibitory concentration (IC50) – broadly, the concentration needed to halve the response being measured – was greater than 1000 nM.

For the molecule `CC(Nc1ncnc2[nH]cnc12)c1cc(Cl)c2ccnnc2c1-c1cccc(F)c1` (stereo not drawn) [Example 16, N-{1-[5-Chloro-8-(3-fluorophenyl)cinnolin-7-yl]ethyl}-9H-purin-6-amine], the half-maximal inhibitory concentration (IC50) is less than 50 nM.

For the molecule `C[C@H](Nc1ncnc2[nH]cnc12)c1cc(Cl)c2ccnnc2c1-c1cccc(F)c1` [Example 108, N-{(1S)-1-[5-chloro-8-(3-fluorophenyl)cinnolin-7-yl]ethyl}-9H-purin-6-amine adipic acid salt], the IC50 is less than 50 nM.

The values above are taken from patent US8680108B2, “Substituted fused aryl and heteroaryl derivatives as PI3K inhibitors” (Incyte Corporation, priority 2009, dated 2014).
